The record followed here is ChEMBL document CHEMBL1139550, “1-Acyl-1H-[1,2,4]triazole-3,5-diamine analogues as novel and potent anticancer cyclin-dependent kinase inhibitors: synthesis and evaluation of biological activities” (J Med Chem, 2005).

By UniProt entry, the sequences of proteins in these tests, tags left out. Residues count along the entry.
UniProt P06213, 28-758 limits assumed: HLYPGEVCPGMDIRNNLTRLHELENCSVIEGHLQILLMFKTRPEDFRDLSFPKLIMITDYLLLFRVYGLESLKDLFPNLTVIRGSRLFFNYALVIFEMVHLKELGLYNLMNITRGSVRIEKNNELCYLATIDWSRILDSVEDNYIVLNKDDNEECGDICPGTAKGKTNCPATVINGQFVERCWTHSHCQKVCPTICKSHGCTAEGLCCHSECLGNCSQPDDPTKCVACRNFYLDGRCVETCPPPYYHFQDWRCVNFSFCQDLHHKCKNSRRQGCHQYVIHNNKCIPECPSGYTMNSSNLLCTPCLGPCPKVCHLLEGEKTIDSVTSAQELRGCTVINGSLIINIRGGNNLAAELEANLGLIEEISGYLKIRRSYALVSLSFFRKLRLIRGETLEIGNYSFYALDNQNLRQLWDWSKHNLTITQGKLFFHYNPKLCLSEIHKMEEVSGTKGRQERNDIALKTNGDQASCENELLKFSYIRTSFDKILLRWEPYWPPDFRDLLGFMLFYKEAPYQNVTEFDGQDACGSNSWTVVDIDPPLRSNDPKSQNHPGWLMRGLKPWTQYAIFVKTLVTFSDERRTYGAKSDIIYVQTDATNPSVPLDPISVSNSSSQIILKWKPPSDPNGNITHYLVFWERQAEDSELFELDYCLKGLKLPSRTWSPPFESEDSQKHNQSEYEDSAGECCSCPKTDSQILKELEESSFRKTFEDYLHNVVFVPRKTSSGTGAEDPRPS
UniProt P06213, 763-1382 limits assumed: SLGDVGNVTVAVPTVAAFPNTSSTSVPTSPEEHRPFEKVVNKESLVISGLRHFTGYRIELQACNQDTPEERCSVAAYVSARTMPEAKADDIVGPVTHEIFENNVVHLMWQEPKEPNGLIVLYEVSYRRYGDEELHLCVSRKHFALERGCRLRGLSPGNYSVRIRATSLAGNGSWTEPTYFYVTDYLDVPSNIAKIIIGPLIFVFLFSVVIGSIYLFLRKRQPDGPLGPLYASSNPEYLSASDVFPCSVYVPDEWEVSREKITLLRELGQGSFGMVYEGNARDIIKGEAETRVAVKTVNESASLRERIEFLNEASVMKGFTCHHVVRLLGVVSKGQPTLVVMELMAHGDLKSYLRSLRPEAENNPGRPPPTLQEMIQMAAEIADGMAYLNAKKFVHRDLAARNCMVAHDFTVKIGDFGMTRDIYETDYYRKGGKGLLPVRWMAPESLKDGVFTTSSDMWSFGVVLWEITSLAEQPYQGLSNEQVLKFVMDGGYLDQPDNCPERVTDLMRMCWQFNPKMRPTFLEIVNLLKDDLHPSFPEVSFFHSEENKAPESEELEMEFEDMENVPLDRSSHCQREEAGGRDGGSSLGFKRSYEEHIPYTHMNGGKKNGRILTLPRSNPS

The assay addresses Insulin receptor (Homo sapiens, UniProt P06213). The assay can be described thus: Inhibition of Insulin kinase-beta activity.

Regarding `Cc1ccc(F)c(C(=O)n2nc(Nc3ccc(S(N)(=O)=O)cc3)nc2C)c1F`, the IC50 stood at 9.8 µM.
